From PubChem BioAssay AID602417 (Sanford-Burnham Center for Chemical Genomics, 2012)
The list shows a part of the results, in another mix than the full data. Activity calls are given as the source filed them.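 Rule for the calls: active = at 20 µM dose, 40% or more inhibition averaged across four replicates; inactive = the rest.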

assay: Peg3 promoter reporter inhibitors, retest, confirmation, cell-based, HeLa, luciferase reporter, single concentration (AID 602417); details: HeLa PEG-Prom luciferase reporter, luminescence, overnight; at 20 µM; stronger effect = higher value

| Compound | inhibition |
| --- | --- |
| COc1cccc(C(c2nnnn2C2CCCCC2)N2CCC(n3c(=O)[nH]c4ccccc43)CC2)c1OC (centres undefined) | inactive: -10.1% |
| CCCCn1nnnc1C(c1cccc2ccccc12)N1CCC(n2c(=O)[nH]c3ccccc32)CC1 (centres undefined) | inactive: 24.7% |
| O=c1[nH]c2ccccc2n1C1CCN(C(c2cccc3ccccc23)c2nnnn2C2CCCC2)CC1 (centres undefined) | active: 47.7% |
| CCCCn1nnnc1C(c1cccs1)N1CCC(n2c(=O)[nH]c3ccccc32)CC1 (centres undefined) | active: 55.2% |
